Experimental data: PMC5571044 (Scientific Reports, 2017)

Sequences of proteins named here, by UniProt entry; tags and fusion partners are left off. Residues count along the entry.
UniProt Q67296, 309-483 limits assumed: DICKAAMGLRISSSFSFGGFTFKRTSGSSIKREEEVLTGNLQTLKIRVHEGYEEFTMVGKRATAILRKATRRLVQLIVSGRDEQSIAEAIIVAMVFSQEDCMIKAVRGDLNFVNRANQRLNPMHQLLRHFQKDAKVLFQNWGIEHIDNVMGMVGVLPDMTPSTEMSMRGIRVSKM

How the values were obtained:
[1] = system: influenza virus A/H3N2/Udorn/72; assay: microbe, parasite or virus in culture; conditions: H3N2, MDCK, 72 h, read-out: CPE EC50
[2] = target: influenza A PB2cap (Influenza A virus (A/Udorn/307/1972(H3N2)), UniProt Q67296); assay: biochemical; format: binding, influenza A/Udorn/307/1972(H3N2)

## O=C(O)[C@H]1C2CCC(CC2)[C@@H]1Nc1nc(-c2c[nH]c3ncc(F)cc23)ncc1F [VX-787]
[1]
  EC50: 2.6 nM
[2]
  Kd: 56.5 nM
